{"sequences": {"note": "Amino acid sequences for entries named in this document (tags omitted).", "UniProt P55789, whole entry": "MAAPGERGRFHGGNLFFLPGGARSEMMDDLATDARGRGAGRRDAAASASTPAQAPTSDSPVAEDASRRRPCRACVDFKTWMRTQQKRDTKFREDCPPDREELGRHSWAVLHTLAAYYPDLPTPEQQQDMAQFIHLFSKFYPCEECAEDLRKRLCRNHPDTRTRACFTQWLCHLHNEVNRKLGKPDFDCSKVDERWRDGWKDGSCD"}, "source": "PubChem BioAssay AID485317", "about": "(Broad Institute, 2010)", "note": "Only a part is listed here, and it is no random draw. Calls of active or inactive are those of the source.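 How the source made its calls: active means mean replicate inhibition above about 79%, with every replicate also reaching it (limit read from the data); inconclusive means only one of the two criteria met; inactive means mean below limit and not every replicate reaching it.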"}
{"molecular_target": "FAD-linked sulfhydryl oxidase ALR (Homo sapiens) (UniProt P55789)", "assay": "inhibitors of human ALR sulfhydryl oxidase, primary screen, biochemical, H2O2 detection, HRP-luminol luminescence, single point (AID 485317)", "conditions": "purified ALR, DTT oxidation, active compounds read high, concentration not given here"}
{"smiles": "Cc1cc(SC(NC(=O)c2ccccc2)C(Cl)(Cl)Cl)nc(C(C)C)n1", "note": "(configuration not stated)", "inhibition": "inactive: 2.82%"}
{"smiles": "O=P(Nc1ccccn1)(c1cccc2ccccc12)c1cccc2ccccc12", "inhibition": "inactive: 4.75%"}
{"smiles": "Cc1cc(SC(NC=O)C(Cl)(Cl)Cl)ncn1", "note": "(configuration not stated)", "inhibition": "inactive: -6.09%"}
{"smiles": "COc1ccccc1OP(C)(=O)Nc1ccccc1", "note": "(configuration not stated)", "inhibition": "inactive: -11.1%"}
{"smiles": "CP(=O)(Nc1ccccc1Br)Oc1ccccc1", "note": "(configuration not stated)", "inhibition": "inactive: 0.113%"}
{"smiles": "O=[N+]([O-])c1ccc(Nc2ccc(Oc3ccc([N+](=O)[O-])cc3[N+](=O)[O-])cc2)c([N+](=O)[O-])c1", "inhibition": "inactive: -1.22%"}
{"smiles": "CP(=S)(Nn1cnnc1)Oc1ccccc1", "note": "(configuration not stated)", "inhibition": "inactive: 0.38%"}
{"smiles": "CCOC(=O)Nc1cccc([As](=O)(O)O)c1", "inhibition": "inactive: 0.821%"}
{"smiles": "CCc1ccc(OP(C)(=O)N2CCN(c3ccc([N+](=O)[O-])cc3)CC2)cc1", "note": "(configuration not stated)", "inhibition": "inactive: -4.84%"}
{"smiles": "O=C(COc1ccccc1)OC1CN2CCC1CC2", "note": "(configuration not stated)", "inhibition": "inactive: -10.8%"}
{"smiles": "CP(=O)(NC(=O)Nc1ccccc1)Oc1ccccc1", "note": "(configuration not stated)", "inhibition": "inactive: 2.75%"}
{"smiles": "Cc1cc(C)cc(OP(C)(=O)Nc2ccc(SC(F)(F)F)cc2)c1", "note": "(configuration not stated)", "inhibition": "inactive: -2.09%"}
{"smiles": "O=C(Nc1ccncc1[N+](=O)[O-])c1ccc([N+](=O)[O-])cc1[N+](=O)[O-]", "inhibition": "inactive: -34.3%"}
{"smiles": "Cc1cccc(C)c1OP(C)(=O)Nc1ccc(SC(F)(F)F)cc1", "note": "(configuration not stated)", "inhibition": "inactive: -2.12%"}
{"smiles": "CP(=O)(Nc1ccc(SC(F)(F)F)cc1)Oc1ccc(Cl)cc1", "note": "(configuration not stated)", "inhibition": "inactive: -4.21%"}
{"smiles": "COP1(=S)c2c(C)nn(CCC#N)c2N=C(c2ccc(F)cc2)N1C", "note": "(configuration not stated)", "inhibition": "inactive: -5.51%"}
{"smiles": "CCC(C)N(CC(C)C)C(=S)SC(NC(C)=O)C(Cl)(Cl)Cl", "note": "(configuration not stated)", "inhibition": "inactive: -4.52%"}
{"smiles": "CP(=O)(Nc1ccccn1)Oc1ccc(Cl)cc1", "note": "(configuration not stated)", "inhibition": "inactive: -0.0811%"}
{"smiles": "CCOP(C)(=S)SCC(=O)NC(C)C(=O)O", "note": "(configuration not stated)", "inhibition": "inactive: -8.83%"}
{"smiles": "O=C(OC1CN2CCC1CC2)c1cccc([N+](=O)[O-])c1", "note": "(configuration not stated)", "inhibition": "inactive: -8.67%"}
{"smiles": "CCOC(=O)c1ccc(NP(C)(=O)Oc2ccc(OC)cc2)cc1", "note": "(configuration not stated)", "inhibition": "inactive: 2.04%"}
{"smiles": "CCOC(=O)c1ccc(NC(=O)C(C)(CCl)SC)cc1", "note": "(configuration not stated)", "inhibition": "inactive: -7.37%"}
{"smiles": "O=[N+]([O-])c1cc([N+](=O)[O-])c(O)c([N+](=O)[O-])c1.c1ccc(Oc2ccncc2)cc1", "inhibition": "inactive: -3.13%"}
{"smiles": "COc1ccc2nc(NP(=O)(c3ccccc3)c3ccccc3)sc2c1", "inhibition": "inactive: 1.93%"}
{"smiles": "COc1cc(I)ccc1[As](=O)(O)O", "inhibition": "inactive: -4.42%"}
{"smiles": "Cc1c2c(nc3ccccc13)SC(C(Cl)Cl)C2", "note": "(configuration not stated)", "inhibition": "inactive: -0.4%"}
{"smiles": "O=C(OC1CN2CCC1CC2)C12CC3CC(CC(C3)C1)C2", "note": "(configuration not stated)", "inhibition": "inactive: 11.9%"}
{"smiles": "Cc1cc(=O)[nH]c(N[N+](=O)[O-])n1", "inhibition": "inactive: -0.013%"}
{"smiles": "CCN(CC)CCCOC(=O)C(O)(c1ccccc1)c1ccccc1", "inhibition": "inactive: -2.29%"}
{"smiles": "COc1ccc(N/C(=N/P(=O)(N2CCOCC2)N2CCOCC2)N2CCOCC2)cc1", "inhibition": "inactive: -35.3%"}
{"smiles": "CC(C)(C)c1ccc(OP(C)(=O)Nc2ccc(SC(F)(F)F)cc2)cc1", "note": "(configuration not stated)", "inhibition": "inactive: -3.14%"}
{"smiles": "Cc1ccc(OP(=O)(Nc2ccc([N+](=O)[O-])cn2)Oc2ccc(C)cc2)cc1", "inhibition": "inactive: -11.5%"}
{"smiles": "Cc1ccc2nc3c(c(C)c2c1)CC(C(Cl)Cl)S3", "note": "(configuration not stated)", "inhibition": "inactive: -9.05%"}
{"smiles": "O=[N+]([O-])c1ccc2c(c1)C=Nc1ccccc1O2", "inhibition": "inactive: 21.5%"}
{"smiles": "O=[N+]([O-])c1cc([N+](=O)[O-])c(Nc2cccnc2)c([N+](=O)[O-])c1", "inhibition": "inactive: -29.3%"}
{"smiles": "O=[As](O)(c1ccc(O)cc1)c1ccccc1O", "inhibition": "inactive: 3.49%"}
{"smiles": "C[As](=O)(O)c1cccc(C(=O)O)c1", "inhibition": "inactive: -1.19%"}
{"smiles": "COc1cc(C(=O)NCC2(N3CCOCC3)CCCCC2)ccc1OCC(C)C", "inhibition": "inactive: -19.8%"}
{"smiles": "COc1ccccc1OP(C)(=O)Nc1cc(Cl)ccc1C", "note": "(configuration not stated)", "inhibition": "inactive: -0.442%"}
{"smiles": "CC(C)NC(=O)NP(=O)(Oc1ccccc1)Oc1ccccc1", "inhibition": "inactive: 7.47%"}
{"smiles": "O=[N+]([O-])c1cc([N+](=O)[O-])c(-c2ccn[nH]2)s1", "inhibition": "inactive: -25.9%"}
{"smiles": "COc1ccc(OP(C)(=O)Nc2cccc(F)c2)cc1", "note": "(configuration not stated)", "inhibition": "inactive: -1.8%"}
{"smiles": "CCOC(=O)c1ccc(NP(C)(=O)Oc2ccccc2)cc1", "note": "(configuration not stated)", "inhibition": "inactive: -1.45%"}
{"smiles": "ClCCSc1nnc(-c2cccnc2)o1", "inhibition": "inactive: -10.6%"}
{"smiles": "COc1ccccc1OP(C)(=O)Nc1ccc(C)cc1", "note": "(configuration not stated)", "inhibition": "inactive: -1.85%"}
{"smiles": "Cc1ccc(NP(C)(=O)Oc2ccccc2)c(C)c1", "note": "(configuration not stated)", "inhibition": "inactive: 1.91%"}
{"smiles": "Nc1ccccc1[As](=O)(O)c1ccccc1", "inhibition": "inactive: -5.27%"}
{"smiles": "O=C(O)COc1ccc([As](=O)(O)O)cc1[N+](=O)[O-]", "inhibition": "inactive: -7.1%"}
{"smiles": "CCOP1(=S)c2c(C)nn(CCC#N)c2N=C(c2ccccc2F)N1C", "note": "(configuration not stated)", "inhibition": "inactive: -8%"}
{"smiles": "O=C(O)c1cccc(Nc2c([N+](=O)[O-])cc([N+](=O)[O-])cc2[N+](=O)[O-])c1", "inhibition": "inactive: -28%"}
{"smiles": "O=P(Nc1nccs1)(c1ccccc1)c1nc2ccccc2s1", "note": "(configuration not stated)", "inhibition": "inactive: 2.53%"}
{"smiles": "O=P(Nc1nccs1)(Oc1ccccc1)Oc1ccccc1", "inhibition": "inactive: 1.51%"}
{"smiles": "N#CCCN(C(=O)COC(=O)C(O)(c1ccccc1)c1ccccc1)c1ccc(F)cc1", "inhibition": "inactive: -2.95%"}
{"smiles": "CCOP1(=S)c2c(C)nn(CCC#N)c2N=C(c2ccc(F)cc2)N1C", "note": "(configuration not stated)", "inhibition": "inactive: -1.22%"}
{"smiles": "CN(C(=O)Cc1ccccc1)[C@@H]1CC[C@]2(CCCO2)C[C@H]1N1CCCC1", "inhibition": "inactive: 1.31%"}
{"smiles": "CN(C)C(=O)c1cc([N+](=O)[O-])cc2c1-c1c(cc([N+](=O)[O-])cc1[N+](=O)[O-])C2=O", "inhibition": "inactive: -17.2%"}
{"smiles": "O=[N+]([O-])c1ccc2c(c1)nnn2O", "inhibition": "inactive: -7.02%"}
{"smiles": "CN(C(=O)Cc1ccc(Cl)c(Cl)c1)[C@H]1CC[C@@]2(CCCO2)C[C@@H]1N1CCCC1", "inhibition": "inactive: -10.6%"}
{"smiles": "NC(=O)Nc1ccc([As](=O)(O)O)cc1", "inhibition": "inactive: -1.94%"}
{"smiles": "O=[As](O)(c1cccc(O)c1)c1cccc(O)c1", "inhibition": "inactive: -6.08%"}
{"smiles": "Cc1cccc(OCC(=O)OC2CN3CCC2CC3)c1", "note": "(configuration not stated)", "inhibition": "inactive: -10.9%"}
{"smiles": "Cc1cc(C)cc(OP(C)(=O)Nc2ccc(C)cc2C)c1", "note": "(configuration not stated)", "inhibition": "inactive: -2.64%"}
